{
  "source": "ChEMBL document CHEMBL3272293",
  "about": "“Use of distribution coefficients in quantitative structure-activity relationships” (J Med Chem, 1977)",
  "type_in_all_cases": "functional",
  "key": {"[1]": {"assay": "Uncoupling of oxidative phosphorylation in rat liver mitochondria at pH 6 relative to control"}, "[2]": {"assay": "Uncoupling of oxidative phosphorylation in rat liver mitochondria at pH 5 relative to control"}, "[3]": {"assay": "Uncoupling of oxidative phosphorylation in rat liver mitochondria at pH 7 relative to control"}, "[4]": {"assay": "Uncoupling of oxidative phosphorylation in rat liver mitochondria at pH 8 relative to control"}},
  "data": [
    {"smiles": "O=[N+]([O-])c1cccc([N+](=O)[O-])c1O", "values": [
      {"measurement": "fold change (FC)", "setting": "[1]", "value": 4.22},
      {"measurement": "fold change (FC)", "setting": "[2]", "value": 4.77},
      {"measurement": "fold change (FC)", "setting": "[3]", "value": 3.68},
      {"measurement": "fold change (FC)", "setting": "[4]", "value": 3.12}
    ]}
  ]
}
